According to patent publication US20210361600A1, “METHODS FOR INDUCING CHONDROGENESIS” (THE SCRIPPS RESEARCH INSTITUTE, priority 2017, published 2021):

What was measured:
[1] = Intravenous acute toxicity study in Crl:CD(SD) rat (toxicokinetics); type: in vivo; details: plasma, median
Experimental: The plasma TK of compound A was determined after a single IV dose in Crl:CD(SD) rats. […] For toxicokinetic evaluation, an additional 3 rats/sex/group were added for the 1 or 2.4 mg/kg dose groups. Toxicokinetic parameters were determined, where feasible, by non-compartmental analysis.

in vivo [2] = details: beagle, dog
in vivo [3] = details: dog, iv
[4] = Intra-articular acute toxicity study in the Beagle dog (toxicokinetics); details: for Tmax: male, beagle, dog, plasma
[5] = Final dose PK in the canine osteoarthritis study; type: in vivo, Beagle dogs; details: beagle, dog, 0.035 mg/knee; female Beagles, 35 μg IA weekly, after 6th dose, plasma; individual animals 1-6
From the text: Acetonitrile, water (Optima, LC/MS Grade) and formic acid, 99+% (Optima, LC/MS Grade) were purchased from Fisher Scientific. Control Female Sprague Dawley rat plasma (Sodium Heparin, 0.2 u filtered) was purchased from Bioreclamation IVT. Chromatography HPLC column, Luna, 5 um C18 (2), 50×2.0 mm and its guard security cartridge and holder were purchased from Phenomenex. HPLC (1100 Series) was purchased from Agilent. The Mass Spectrometer system, API 3000 was purchased from SCIEX. Separation was performed on a reversed phase C18 column with a gradient elution using mobile phases of 0.1% formic acid in water (A) and 0.1% formic acid in acetonitrile (B) with flow rate at 0.6 mL/min. […] Multiple reaction monitoring (MRM) was used for drug quantification, Precursor to Product ion transition was 347.0>268.9 (m/z). MRM for internal standard Kartogenin was 316.0>272.0 (m/z).
Calibration Standard curves were generated in rat plasma ranging from 1.53 to 781.3 ng/mL. Standards and samples were both prepared by protein precipitation (using internal standard, Kartogenin or KGN at 250 ng/mL in cold acetonitrile) and centrifugation. […]
Female Beagles underwent medial meniscal tear surgery to induce osteoarthritis. […] (a) AUC0-2=area under the plasma concentration-time curve (AUC) from the start of dosing (0) to the last quantifiable time point (τ), which was 2 hours. […]

in vivo [6] = details: both sexes, Crl:CD(SD), rat
in vivo [7] = experiment: in vivo; parameters: species or system Crl:CD(SD) rat; details: rat

## COCCc1ccc(NC(=O)c2ccccc2NS(C)(=O)=O)cc1 [Compound A, N-(4-(2-methoxyethyl)phenyl)-2-(methylsulfonamido)benzamide]
[1]; female rats, single IV 1 mg/kg
  Tmax: 4.8 min
[1]; female rats, single IV 2.4 mg/kg
  Tmax: 4.8 min
[1]; male rats, single IV 1 mg/kg
  Tmax: 4.8 min
[1]; male rats, single IV 2.4 mg/kg
  Tmax: 4.8 min
In vivo [2]; both
  Tmax: 19.8 to 60 min
In vivo [2]; male
  Tmax: 60 min
In vivo [3]; both, beagle
  Tmax: 10.2 min
In vivo [3]; female, Beagle, 0.125 mg/kg
  Tmax: 10.2 min
In vivo [3]; female, Beagle, 0.6 mg/kg
  Tmax: 10.2 min
In vivo [3]; female, Beagle, 1.25 mg/kg
  Tmax: 10.2 min
In vivo [3]; male, beagle, 0.125 mg/kg
  Tmax: 10.2 min
In vivo [3]; male, beagle, 0.6 mg/kg
  Tmax: 10.2 min
In vivo [3]; male, beagle, 1.25 mg/kg
  Tmax: 10.2 min
[4]; 35 μg/knee, Tmax, male dogs, single IA 35 μg/knee, individual animals 41M, 42M
  Tmax: 4.8 min
[4]; 100 μg/knee, Tmax, male dogs, single IA 100 μg/knee, individual animals 43M, 44M
  Tmax: 60 min
[4]; other: intra-articular, plasma Tmax, doses of 35, 100 and 200 ng, range
  Tmax: 4.8 to 60 min
[4]; single IA
  dose proportionality of systemic plasma exposure (mean Cmax and AUC0-t): less than dose-proportional
[5]
  Tmax: 30 min
In vivo [6]
  Tmax: 4.8 min
In vivo [7]; female, Crl:CD(SD), 70 ug/kg
  Tmax: 60 min
In vivo [7]
  differences in systemic exposure following single and repeat IA administration: no significant
